What was measured:
[1] = Toxicity in CD-1 mouse assessed as conditional preference aversion at ED50, ip administered for 7 day; conditions: in vivo, 168 h
[2] = Toxicity in ICR mouse assessed as reduction in time stayed in rod at 5 mg/kg, ip for 30 mins by rotarod test; conditions: in vivo, 0.5 h
[3] = Toxicity in CD-1 mouse assessed as conditional preference aversion at ED90, ip administered for 7 day; conditions: in vivo, 168 h
[4] = Toxicity in ICR mouse assessed as reduction in time stayed in rod at ED50 to ED90, ip for 4 hrs by rotarod test; conditions: in vivo
[5] = Toxicity in Kunming mouse assessed as effect on spontaneous locomotor activity at ED50 to ED90, ip after 4 hrs followed by locomotion measured for 1 hr; conditions: in vivo, 5 h
[6] = Toxicity in ICR mouse assessed as reduction in time stayed in rod at 2.1 mg/kg, ip for 3 hrs by rotarod test; conditions: in vivo
[7] = Toxicity in ICR mouse assessed as reduction in time stayed in rod at 7.5 mg/kg, ip for 3 hrs by rotarod test; conditions: in vivo
[8] = Toxicity in ICR mouse assessed as reduction in time stayed in rod at 0.006 to 0.02 mg/kg, ip for 20 mins by rotarod test; conditions: in vivo

## CN(C(=O)Cc1ccc(Cl)c(Cl)c1)C1CCCCC1N1CCCC1.CS(=O)(=O)O (centres undefined)
[1]
  Activity: Toxic
[2]
  Activity: Toxic

## COc1ccc2c3c1O[C@H]1[C@@]4(OC)CC[C@@]5(C[C@@]4(C)[C@H](O)c4ccccc4)[C@@H](C2)N(CC2CC2)CC[C@]315
[1]
  Activity: Non-Toxic
[3]
  Activity: Toxic
[4]
  Activity: Non-Toxic
[5]
  Activity: Non-Toxic

## COc1ccc2c3c1O[C@H]1[C@@]4(OC)C=C[C@@]5(C[C@@H]4C(=O)c4ccccc4)[C@@H](C2)N(CC2CC2)CC[C@]315
[6]
  Activity: Non-Toxic
[7]
  Activity: Toxic

## CN(C(=O)/C=C/c1ccoc1)[C@@H]1CC[C@@]2(O)[C@H]3Cc4ccc(O)c5c4[C@@]2(CCN3CC2CC2)[C@H]1O5
[8]
  Activity: Non-Toxic
